Test results: PubChem BioAssay AID1817 (Sanford-Burnham Center for Chemical Genomics, 2009)
The list shows a part of the results, in another mix than the full data. Potency and affinity values are given separately. Calls of active or inactive are those of the source.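 Rule for the calls: active = displacement of at least 50% at 20 µM, with a fluorescence ratio check between 0.3 and a set limit; inactive = the rest.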

The chains behind the UniProt entries cited, without tags or fusion partners.
UniProt Q8IUQ4, whole entry: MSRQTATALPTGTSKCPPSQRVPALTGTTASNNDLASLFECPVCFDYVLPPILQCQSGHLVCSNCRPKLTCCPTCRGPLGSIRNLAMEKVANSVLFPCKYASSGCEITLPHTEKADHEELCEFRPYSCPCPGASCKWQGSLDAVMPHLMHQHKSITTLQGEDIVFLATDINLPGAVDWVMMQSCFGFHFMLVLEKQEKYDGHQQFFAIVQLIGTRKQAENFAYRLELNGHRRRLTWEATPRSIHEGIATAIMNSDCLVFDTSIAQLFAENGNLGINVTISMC
UniProt Q15149, whole entry partner: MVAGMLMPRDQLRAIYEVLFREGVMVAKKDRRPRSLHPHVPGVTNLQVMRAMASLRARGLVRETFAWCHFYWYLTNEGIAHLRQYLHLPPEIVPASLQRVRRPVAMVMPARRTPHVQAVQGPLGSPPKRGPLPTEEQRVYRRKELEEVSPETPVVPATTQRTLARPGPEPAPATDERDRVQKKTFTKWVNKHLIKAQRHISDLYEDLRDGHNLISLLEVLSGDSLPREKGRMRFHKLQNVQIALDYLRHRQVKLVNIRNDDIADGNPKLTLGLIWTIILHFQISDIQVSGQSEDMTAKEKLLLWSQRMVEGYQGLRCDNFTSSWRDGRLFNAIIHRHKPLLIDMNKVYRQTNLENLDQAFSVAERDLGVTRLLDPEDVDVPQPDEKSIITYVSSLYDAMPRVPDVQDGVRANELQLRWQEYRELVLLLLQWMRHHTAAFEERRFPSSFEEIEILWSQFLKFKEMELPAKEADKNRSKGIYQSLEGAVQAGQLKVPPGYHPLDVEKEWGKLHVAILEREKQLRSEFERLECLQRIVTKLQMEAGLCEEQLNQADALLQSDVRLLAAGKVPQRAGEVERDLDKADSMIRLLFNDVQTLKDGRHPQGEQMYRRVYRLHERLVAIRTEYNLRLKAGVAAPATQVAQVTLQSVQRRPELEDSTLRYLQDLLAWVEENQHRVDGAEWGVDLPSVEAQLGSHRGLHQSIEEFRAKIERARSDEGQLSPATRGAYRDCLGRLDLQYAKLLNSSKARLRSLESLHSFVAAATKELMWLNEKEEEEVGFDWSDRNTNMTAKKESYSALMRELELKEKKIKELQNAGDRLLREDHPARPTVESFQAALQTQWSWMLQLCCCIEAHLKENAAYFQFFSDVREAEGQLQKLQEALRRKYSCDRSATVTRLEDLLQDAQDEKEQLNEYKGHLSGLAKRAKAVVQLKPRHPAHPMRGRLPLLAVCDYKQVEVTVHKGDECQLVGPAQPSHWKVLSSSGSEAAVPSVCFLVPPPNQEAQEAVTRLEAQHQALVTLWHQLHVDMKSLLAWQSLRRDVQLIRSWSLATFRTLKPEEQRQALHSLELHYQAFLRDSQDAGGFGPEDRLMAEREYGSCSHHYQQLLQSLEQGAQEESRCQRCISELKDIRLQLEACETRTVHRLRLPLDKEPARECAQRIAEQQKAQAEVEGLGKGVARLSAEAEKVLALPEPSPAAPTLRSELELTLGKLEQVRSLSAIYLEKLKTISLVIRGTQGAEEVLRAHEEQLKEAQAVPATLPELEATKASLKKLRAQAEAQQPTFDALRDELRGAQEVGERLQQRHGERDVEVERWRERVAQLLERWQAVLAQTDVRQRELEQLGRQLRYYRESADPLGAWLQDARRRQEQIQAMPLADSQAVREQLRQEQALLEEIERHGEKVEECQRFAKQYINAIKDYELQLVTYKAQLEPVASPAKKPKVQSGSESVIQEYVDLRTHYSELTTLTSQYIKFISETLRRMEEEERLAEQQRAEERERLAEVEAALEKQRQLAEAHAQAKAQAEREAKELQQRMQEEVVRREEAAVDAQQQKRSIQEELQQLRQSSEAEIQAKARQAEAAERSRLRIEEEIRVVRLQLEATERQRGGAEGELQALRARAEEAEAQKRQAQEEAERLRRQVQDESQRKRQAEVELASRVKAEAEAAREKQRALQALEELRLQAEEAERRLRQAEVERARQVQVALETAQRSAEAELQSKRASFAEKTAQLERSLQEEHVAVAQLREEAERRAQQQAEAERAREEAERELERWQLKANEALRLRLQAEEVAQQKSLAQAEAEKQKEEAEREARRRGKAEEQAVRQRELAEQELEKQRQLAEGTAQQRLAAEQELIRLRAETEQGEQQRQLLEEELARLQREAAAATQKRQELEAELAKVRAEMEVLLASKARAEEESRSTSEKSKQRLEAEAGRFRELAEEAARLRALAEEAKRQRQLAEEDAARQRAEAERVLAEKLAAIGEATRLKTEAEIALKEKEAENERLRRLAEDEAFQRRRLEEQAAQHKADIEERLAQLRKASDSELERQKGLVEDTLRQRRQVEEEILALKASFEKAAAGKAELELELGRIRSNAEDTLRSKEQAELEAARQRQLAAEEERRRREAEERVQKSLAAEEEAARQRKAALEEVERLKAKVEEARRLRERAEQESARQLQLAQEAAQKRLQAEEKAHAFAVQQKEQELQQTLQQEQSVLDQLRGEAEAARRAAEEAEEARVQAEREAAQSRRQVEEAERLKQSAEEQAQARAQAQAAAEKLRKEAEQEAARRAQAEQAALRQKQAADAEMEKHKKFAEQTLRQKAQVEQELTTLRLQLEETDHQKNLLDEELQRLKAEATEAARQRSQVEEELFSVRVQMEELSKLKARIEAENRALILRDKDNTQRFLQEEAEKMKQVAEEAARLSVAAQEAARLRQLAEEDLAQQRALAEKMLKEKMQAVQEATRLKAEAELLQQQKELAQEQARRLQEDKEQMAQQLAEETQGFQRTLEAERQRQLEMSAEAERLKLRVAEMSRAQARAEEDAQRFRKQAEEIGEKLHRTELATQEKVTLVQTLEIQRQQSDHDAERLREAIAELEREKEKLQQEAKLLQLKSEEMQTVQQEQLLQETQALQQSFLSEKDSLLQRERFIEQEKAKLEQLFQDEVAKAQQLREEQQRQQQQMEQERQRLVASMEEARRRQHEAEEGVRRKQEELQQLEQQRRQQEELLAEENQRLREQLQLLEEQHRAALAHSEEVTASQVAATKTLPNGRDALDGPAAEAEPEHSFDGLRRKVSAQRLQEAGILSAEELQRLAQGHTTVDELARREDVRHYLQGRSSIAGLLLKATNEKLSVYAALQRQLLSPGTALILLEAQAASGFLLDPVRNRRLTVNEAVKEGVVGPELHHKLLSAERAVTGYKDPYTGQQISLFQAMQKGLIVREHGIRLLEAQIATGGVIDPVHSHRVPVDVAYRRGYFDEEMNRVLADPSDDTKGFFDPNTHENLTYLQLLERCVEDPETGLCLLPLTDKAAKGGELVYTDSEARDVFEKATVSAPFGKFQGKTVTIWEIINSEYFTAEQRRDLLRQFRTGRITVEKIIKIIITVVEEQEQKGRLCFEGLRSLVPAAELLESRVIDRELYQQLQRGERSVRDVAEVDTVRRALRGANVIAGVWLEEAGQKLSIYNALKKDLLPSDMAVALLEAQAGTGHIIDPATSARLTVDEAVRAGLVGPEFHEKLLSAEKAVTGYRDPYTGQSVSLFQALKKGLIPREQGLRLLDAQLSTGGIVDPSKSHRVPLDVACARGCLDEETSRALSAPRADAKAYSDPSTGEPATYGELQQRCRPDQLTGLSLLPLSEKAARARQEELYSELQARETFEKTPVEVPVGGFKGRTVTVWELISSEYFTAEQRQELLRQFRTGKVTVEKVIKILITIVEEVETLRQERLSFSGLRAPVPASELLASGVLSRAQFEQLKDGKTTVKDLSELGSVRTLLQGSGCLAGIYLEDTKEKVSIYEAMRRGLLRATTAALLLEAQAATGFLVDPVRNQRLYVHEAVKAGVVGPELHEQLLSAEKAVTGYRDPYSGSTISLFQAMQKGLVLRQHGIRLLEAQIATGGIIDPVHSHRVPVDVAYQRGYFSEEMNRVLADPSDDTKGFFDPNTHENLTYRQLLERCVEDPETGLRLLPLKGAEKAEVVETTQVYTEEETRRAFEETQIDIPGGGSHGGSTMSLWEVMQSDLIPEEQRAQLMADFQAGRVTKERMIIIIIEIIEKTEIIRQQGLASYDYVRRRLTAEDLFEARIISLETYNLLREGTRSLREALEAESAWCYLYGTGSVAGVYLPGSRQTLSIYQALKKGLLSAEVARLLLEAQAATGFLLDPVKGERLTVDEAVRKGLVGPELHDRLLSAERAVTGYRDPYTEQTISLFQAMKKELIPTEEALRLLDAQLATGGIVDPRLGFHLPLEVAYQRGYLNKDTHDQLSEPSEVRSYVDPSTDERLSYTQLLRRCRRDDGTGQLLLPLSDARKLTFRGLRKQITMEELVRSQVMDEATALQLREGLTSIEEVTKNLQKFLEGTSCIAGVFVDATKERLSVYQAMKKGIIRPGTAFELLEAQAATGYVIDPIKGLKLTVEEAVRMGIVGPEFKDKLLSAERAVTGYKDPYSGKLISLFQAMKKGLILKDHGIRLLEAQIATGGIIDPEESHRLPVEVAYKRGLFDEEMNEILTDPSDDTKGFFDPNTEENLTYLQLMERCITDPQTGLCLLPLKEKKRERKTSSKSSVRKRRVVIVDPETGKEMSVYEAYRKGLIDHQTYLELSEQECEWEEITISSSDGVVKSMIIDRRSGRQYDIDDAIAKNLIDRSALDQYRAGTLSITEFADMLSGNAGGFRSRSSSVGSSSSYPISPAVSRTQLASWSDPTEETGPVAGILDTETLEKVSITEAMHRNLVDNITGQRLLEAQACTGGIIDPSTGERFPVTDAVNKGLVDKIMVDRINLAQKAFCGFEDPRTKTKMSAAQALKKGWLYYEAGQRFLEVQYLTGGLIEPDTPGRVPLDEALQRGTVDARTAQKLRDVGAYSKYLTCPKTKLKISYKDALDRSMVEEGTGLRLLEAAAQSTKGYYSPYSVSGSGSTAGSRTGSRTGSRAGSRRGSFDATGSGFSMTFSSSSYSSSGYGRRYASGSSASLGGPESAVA

biological target: E3 ubiquitin-protein ligase SIAH1 (Homo sapiens) (UniProt Q8IUQ4); experiment: Siah-1 peptide-binding antagonists, primary screen, biochemical, fluorescence polarization, rhodamine-plectin, uHTS (AID 1817); conditions: Siah-1 / rhodamine-plectin peptide fluorescence polarization; at 20 µM; stronger effect = higher value;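 note: plate controls were Siah plus tracer with DMSO for no effect and tracer alone without Siah for full effect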

Row | SMILES | displacement
1 | COc1ccc(NC2CCN(C(=O)OC(C)(C)C)CC2)cc1 | inactive: -11.9%
2 | CN1CCN(CCOC(=O)C(O)(c2ccccc2)c2ccccc2)CC1 | inactive: 5.9%
3 | N#Cc1ccc(C(=O)NCC2(N3CCCCC3)CCCCC2)cc1 | inactive: -6.2%
4 | CC(C)(C)OC(=O)N1CCC(N(C(=O)c2ccccc2)c2ccc(Cl)cc2)CC1 | inactive: 3.6%
5 | CN(C)C1(CNC(=O)c2cccc(C#N)c2)CCCCC1 | inactive: 0.3%
6 | c1ccc(CN2CCC(Nc3ccccc3)CC2)cc1 | inactive: 1.8%
7 | CCCN1CCC(Nc2cc(OC)cc(OC)c2)CC1 | inactive: 0.1%
8 | COc1ccc(C(=O)NCC2(N3CCOCC3)CCCCC2)cc1OC | inactive: 6.1%
9 | CCOC(=O)N1CCC(Nc2ccc(C)cc2)CC1 | inactive: 4.6%
10 | N/C(=N\O)c1c(N)no[n+]1[O-] | inactive: 1.8%
11 | O=C(OC1CN2CCC1CC2)C1c2ccccc2C=Cc2ccccc21 (stereo not given) | inactive: 4.2%
12 | CCOc1ncccc1C(=O)NCC1(N2CCOCC2)CCCCC1 | inactive: -3.6%
13 | CN1CCC(Nc2ccc(F)c(Cl)c2)CC1 | inactive: 4.6%
14 | CC(C)(C)OC(=O)N1CCC(Nc2ccccc2)CC1 | inactive: -2.2%
15 | O=C(O)C1(Nc2ccccc2)CCN(Cc2ccccc2)CC1 | inactive: 2.6%
16 | CCCOc1ccc(C(=O)NCC2(N(C)C)CCCCC2)cc1 | inactive: 2.4%
17 | COc1cccc(C(=O)N(c2cc(C)cc(C)c2)C2CCN(C(=O)OC(C)(C)C)CC2)c1 | inactive: 4.2%
18 | COc1cc(OC)cc(C(=O)NCC2(N3CCOCC3)CCCCC2)c1 | inactive: 3.9%
19 | CCC(CO)(C(=O)OC1CN2CCC1CC2)c1ccccc1 (stereo not given) | inactive: -3.2%
20 | CN1CCC(Nc2ccc(Cl)cc2)CC1 | inactive: 6.1%
21 | CCCOc1ccc(C)cc1CN(CCCl)CCCl | inactive: -5.9%
22 | COc1cc(OC)cc(C(=O)NCC2(N3CCCCC3)CCCCC2)c1 | inactive: -5.5%
23 | Fc1ccccc1NC1CCN(Cc2ccccc2)CC1 | inactive: -0.8%
24 | CCN1CCC(Nc2cccc(F)c2)CC1 | inactive: 6.5%
25 | CN(C)c1ccc(C(=O)NCC2(N3CCCCC3)CCCCC2)cc1 | inactive: 5.5%
